This is a selection; strong and weak results do not stand in their true shares. Some results for these compounds are left out of this collection, so the calls shown say nothing about other tests. The source made the active and inactive calls.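 Rule for the calls: active = plate z-score of nuclear minus cytoplasmic receptor signal below a set negative limit, without overly bright fluorescence or cell loss (cut at about -3.5 in these data, passing the limit was not always enough); inactive = the rest, inconclusive results apart.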
Assay: inhibitors of GR-EGFP nuclear translocation, primary screen, dynein cargo transport inhibitor project, imaging, high-content, 3617.4 mouse cells (AID 1381)
Conditions: hits give low values, stimulated with dexamethasone, 1 µM; at 20 µM unless noted

Row | SMILES | z-score
1 | O=C(NCC1(N2CCCCC2)CCCCC1)c1cc([N+](=O)[O-])ccc1Cl | inactive: -1.05
2 | CC(C)N1C(=O)CC2(CCN(CCOC(=O)C(O)(c3ccccc3)c3ccccc3)CC2)C1=O | inactive: 0.0909
3 | CCN(CC)CC(C)C(C)OC(=O)C(O)(c1ccccc1)c1ccccc1 (stereo unspecified) | inactive: -0.399
4 | Cc1ccccc1C(=O)NCC1(N2CCCCC2)CCCCC1 | inactive: 0.258
5 | CN(C)C1CCCC1OC(=O)C(O)(c1ccccc1)c1ccccc1 (stereo unspecified) | inactive: -0.0946
6 | C=CCN1CCN(CCOC(=O)C(O)(c2ccccc2)c2ccccc2)CC1 | inactive: 0.0497
7 | CCN1CCCC(OC(=O)C2(O)c3ccccc3C=Cc3ccccc32)C1 (stereo unspecified) | inactive: 0.126
8 | COc1cccc(C(=O)NCC2(N3CCCCC3)CCCCC2)c1 | inactive: -0.266
9 | O=C(OC1CN2CCC1CC2)C(CO)(c1ccccc1)c1ccccc1 (stereo unspecified) | inactive: -0.336 [at 50 µM]
10 | COc1ccc(Br)c(C(=O)NCC2(N3CCCCC3)CCCCC2)c1 | inactive: -1.35
11 | CN(C)c1cccc(C(=O)NCC2(N(C)C)CCCCC2)c1 | inactive: -0.589

Source: PubChem BioAssay AID1381 (University of Pittsburgh Molecular Library Screening Center, 2008)
